Source: patent US20240299542A1, “NATURAL KILLER CELLS ENGINEERED TO REDUCE OR ELIMINATE CBL-B AND USES THEREOF” (City of Hope, priority 2021, published 2024)

Legend:
Cbl-b [1] = test: Cbl-b mRNA by qRT-PCR after IL-15 or IL-2 treatment of primary human NK cells; assay type: cell-based; conditions: IL-15 (10 ng/ml) or IL-2 (150 IU/ml)
Cbl-b [2] = test: Cbl-b protein by immunoblot after stimulation of primary human NK cells with cytokines or activating antibody; assay type: cell-based; conditions: 24 h cytokine stimulation, compared to resting NK cells without cytokines
Protocol: (FIG. 1A) Enriched primary human NK cells were treated with IL-2 (150 IU/ml), IL-7 (50 ng/ml), IL-12 (10 ng/ml), IL-18 (10 ng/ml), IL-21 (20 ng/ml) or IL-15 (20 ng/ml) for 24 h followed by immunoblot analysis (n=5 donors). […] (FIG. 1B) Enriched primary human NK cells were co-cultured with the K562 myeloid leukemia cell line (E/T ratio=10:1) for 24 h followed by immunoblot analysis. Summary data are from three independent experiments. (FIG. 1C) Primary human NK cells were treated with different concentrations of IL-15 for 24 h followed by immunoblot analysis (n=5 donors). […]
FIG. 6A Enriched primary human NK cells were cocultured with Molm-13 or MV4-11 leukemia cell lines (E/T ratio=10:1) for 24 h prior to assessment of Cbl-b by immunoblot analysis. […] FIG. 6C The expression of Cbl-b was assessed by qRT-PCR after primary human NK cells were treated with IL-15 (10 ng/ml) or IL-2 (150 IU/ml) at different time point. […] FIG. 6D The expression of Cbl-b was assessed by qRT-PCR after primary human NK cells were treated with IL-15 (10 ng/ml) or IL-2 (150 IU/ml) for 24 h. […] FIG. 6E The expression of Cbl-b was assessed by qRT-PCR after primary human NK cells were incubated with K562 cells (E/T ratio=10:1) for 24 h. […]
Immunoblotting. […] Densitometric analysis was performed to quantify intensity of gel bands with Image J (National Institutes of Health). […]

In the case of “IL-2: Recombinant human IL-2 protein obtained from National Institutes of Health”, the “upregulation of Cbl-b mRNA at 24 h post stimulation” value (Cbl-b [1]; 24 h) is reported as “sustained”, the “time of peak Cbl-b mRNA” value (Cbl-b [1]; compared to unstimulated NK cells) is reported as 4 h and the “expression of Cbl-b protein (ratio to β-actin)” value (Cbl-b [2]) is reported as “induced an increase in the expression of Cbl-b”.
